In the library only some 0.78% were active in any assay of this set; here they are far more common.
TCR activator: activators of T cell receptors. primary human leukocytes, anti-CD3, IL-2 HTRF, 48 h. Potency, µM (titrated, usually from 9.22 µM), inactives show at the highest dose activation of IL-2 secretion, most hits filed as activators. 330,000 tested, under 10 active. AID 504894; also: % of control where 0% means no effect
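Primary human leukocytes were stimulated with a-CD3 beads plus compounds for 48 hr without co-stimulation; secreted IL-2 was quantified by HTRF using a-IL-2-K (europium cryptate) and a-IL-2-d2, excited at 320nm with acceptor emission read at 665nm.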
RXFP1 antag: blocks the human relaxin receptor RXFP1; AID 1259400; HEK293-RXFP1, relaxin-stimulated cAMP HTRF, 30 min; stronger effect = lower value; Q9HBX9; 0.59% of 350,000 active; activity change, negative = inhibition, % at 57.5 µM;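 active = activity change of -60% or lower, but not beyond a set lower limit; inconclusive = change between -60% and -40%, or beyond the set limit; inactive = change above -40%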; also: % is scaled to controls: 0 for no effect and ±100 for the full control effect
RXFP1 agonist: RXFP1 (human) receptor agonism; HEK293T-RXFP1 cAMP TR-FRET, 30 min; response scale: percent of porcine relaxin response, buffer zero; Potency, µM (highest dose often 57.5 µM), for the others: at the top dose activation, actives largely listed as activators; Q9HBX9; AID 2676; 0.3% of 370,000 active; also: potency is read from the fitted curve at half-maximal effect; % is scaled to controls: 0 for no effect and ±100 for the full control effect; nearly all actives have a fitted effect of over 60% in size
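Agonist response is measured as cAMP accumulation in an RXFP1-transfected HEK293T line under PDE4 inhibition. Values are scaled between buffer-only and 29 nM porcine relaxin, and EC50s come from standard Hill equation fits.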
miR-21 FLuc: raises the signal of a miR-21 reporter | Potency, µM (doses to about 38.3 µM), for inactives: top-dose reporter change, positive = more light | HeLa miR-21 FLuc reporter, luciferase, 48 h | AID 2288 | 340,000 tested, under 10 active; active = well fitted rising curve with a large enough effect; inconclusive = small, poorly fitted or top-dose-only effect; inactive = no such curve, though single readings can be large or run the other way;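 also: % of control where 0% means no effect; miR-21 action dims this reporter so a rising signal means less miR-21 action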
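HeLa cells endogenously expressing miR-21, stably carrying CMV-driven firefly luciferase with a downstream miR-21 binding site, 2000 cells/well. Titrations up to approximately 40 uM, 48 hours; luciferase luminescence read.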
PINK1 expr mod: changes PINK1 expression. PINK1 immunofluorescence, high-content cytometry, 24 h. Potency, µM (doses to about 76.6 µM), inactives show at the highest dose activation (PINK1 increase), usual class: activators. 0.2% of 410,000 active. AID 624263; active = well fitted activation curve with a large enough effect; inconclusive = small, poorly fitted or top-dose-only effect; cell line not stated here; also: potency is read from the fitted curve at half-maximal effect; % of control where 0% means no effect; nearly all actives have a fitted effect of over 65% in size
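Measures PINK1 amount and localization on or inside mitochondria by immunofluorescence. Stable cells get compounds at 5 concentrations for 24 hours before fixation and staining; CCCP controls included.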
IL2 activator: activators of IL-2 | activation, % (series mostly up to about 46 µM) | AID 652025 | IL-2 activation reporter assay, cell-based qHTS; stimulated with anti-CD3/CD4/CD28 beads; in transgenic mouse T cells | 0.065% of 360,000 active; in the data active = activation above about 50%; inconclusive = mostly about 30% to 49%; also: 0% is about no effect
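EGFP and DsRed fluorescence is measured by plate cytometry in unstimulated transgenic mouse T cells exposed to compound for 60 minutes, then stimulated 18 hours at 37 degrees C with anti-CD3/anti-CD4 beads plus anti-CD28.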
Numbers without * were called inactive; ? = inconclusive; nt = not tested or not shown; [ ] = remark or other dose. Unless noted, calls follow the shape of the dose curve; as a rule, active = well fitted curve in the direction sought with a large enough effect; inconclusive = small, poorly fitted or top-dose-only effect, or another doubt; inactive = no such curve, though single readings can be large; an effect the other way counts as inactive or inconclusive.

#1 CC[n+]1c(/C=C2\Sc3ccccc3N2C)ccc2cccc(C)c21
#2 CCN1/C(=C/c2ccc3cc(C)ccc3[n+]2CC)Sc2ccccc21
#3 O=C(CSc1ncccn1)NCC1Cc2cccc(-c3ncccn3)c2O1 (stereo not given)
#4 OC(CNC1CCCc2ccccc21)COc1c(Cl)cccc1Cl (stereo not given)
#5 OC(CNC1Cc2ccccc2C1)COc1ccc(Cl)cc1 (stereo not given)
#6 CC(Oc1cccnc1[N+](=O)[O-])C(=O)Nc1cccc(Cl)c1 (stereo not given)
Compound | 1 | 2 | 3 | 4 | 5 | 6
TCR activator | 12% | 4% | nt | 2%[46.1 µM] | 14% | -2%
RXFP1 antag | -31 | -17 | nt | -63* | nt | -97*
RXFP1 agonist | ? | 26% | nt | -1% | 1% | 2%
miR-21 FLuc | ? | ? | nt | 8% | -6% | nt
PINK1 expr mod | 0% | 8% | 1% | 16% | 16% | 3%
IL2 activator | 160* | 90* | nt | -8 | -3 | -1

#7 Cc1cnc(-n2ncc(C(=O)NCc3cccnc3)c2C)nc1-c1ccc(F)cc1
#8 O=C(NCc1ccccn1)c1cnn(-c2nccc(-c3cccs3)n2)c1C1CC1
#9 O=C(NNC(=O)c1cc(-c2cccnc2)nc2ccccc12)Nc1ccc(Cl)cc1
#10 O=C(NNC(=O)c1cc(-c2ccccc2)nc2ccccc12)Nc1cccc(Cl)c1
#11 COc1ccc(-n2c(=S)[nH]c3cc(C(=O)NCc4cccnc4)ccc3c2=O)c(OC)c1
#12 COc1ccc(-n2c(=S)[nH]c3cc(C(=O)NCc4ccccc4)ccc3c2=O)c(OC)c1
Compound | 7 | 8 | 9 | 10 | 11 | 12
TCR activator | nt | nt | 2% | 6% | 3% | -15%
RXFP1 antag | nt | nt | -73* | -24 | -71* | -17
RXFP1 agonist | nt | nt | 0% | 1% | 3% | 3%
miR-21 FLuc | nt | nt | 8% | 25% | 5% | 7%
PINK1 expr mod | 1% | 0% | 30% | 16% | 2% | 2%
IL2 activator | nt | nt | -1 | -1 | 0 | -1

#13 CCN(CC)S(=O)(=O)c1ccc(C)c(NC(=S)Nc2cccc(S(=O)(=O)N3CCCCCC3)c2)c1
#14 O=C(CSc1ncnc2ccccc12)Nc1cc(S(=O)(=O)N2CCCCC2)ccc1Cl
#15 O=C(Nc1cccc(Cl)c1)Nc1cc(S(=O)(=O)N2CCCCC2)ccc1Cl
#16 O=C(CNc1ccc(C(F)(F)F)cc1)Nc1cccc(S(=O)(=O)N2CCCCC2)c1
#17 CN1CCN(S(=O)(=O)c2ccc(NC(=O)Nc3cccc(Cl)c3)cc2)CC1
#18 CC(C)Cc1cc(C(=O)NCC2Cc3cc(F)cc(-c4ccccn4)c3O2)no1 (stereo not given)
Compound | 13 | 14 | 15 | 16 | 17 | 18
TCR activator | -8% | -3%[46.1 µM] | -11%[46.1 µM] | nt | 6% | nt
RXFP1 antag | 4 | 1 | -16 | -8 | 8 | nt
RXFP1 agonist | 2% | 16µM* | 0% | nt | -2% | nt
miR-21 FLuc | 24% | 1% | ? | nt | 9% | nt
PINK1 expr mod | 25µM* | 0% | 14µM* | 45µM* | -3% | 0%
IL2 activator | -5 | -5 | -1 | -3 | 0 | nt

#19 CCC(=O)NCc1nc(-c2cccc(NC(=O)c3ccc(C)s3)c2)oc1C
#20 COc1ccc(N2C(=O)CCSC23C(=O)N(Cc2ccc(F)cc2)c2ccccc23)cc1 (stereo not given)
#21 Clc1ccccc1/C=N/NC1=Nc2cccc3cccc1c23
#22 CCC1CN(CCC(=O)N2CCCN(C(=O)c3ccco3)CC2)Cc2cc(OC)ccc2O1 (stereo not given)
#23 CCOC(=O)C1CCCCN1Cc1nc(N2CCN(C(C)=O)CC2)c2ccccc2n1 (stereo not given)
#24 CCC(/C=C1\Sc2ccc(OC)cc2N1CCO)=C\c1sc2ccc(OC)cc2[n+]1CCO
Compound | 19 | 20 | 21 | 22 | 23 | 24
TCR activator | nt | nt | 4%[46.1 µM] | nt | nt | 13µM*
RXFP1 antag | nt | -82* | -12 | nt | nt | -16
RXFP1 agonist | nt | 0% | 1% | nt | nt | -10%
miR-21 FLuc | nt | 25% | -53% | nt | nt | 23%
PINK1 expr mod | 1% | 1% | ? | 0% | 1% | 14µM*
IL2 activator | nt | nt | 244* | nt | nt | 4

#25 O=C(Nc1ccccc1)C(Cc1ccccc1)N1Cc2ccccc2C1=O (stereo not given)
#26 O=C(Nc1ccc([N+](=O)[O-])cc1)C(Cc1ccccc1)N1C(=O)c2cccc3cccc(c23)C1=O (stereo not given)
#27 COc1ccc(CN2CCOc3ccc(CN4CCN(CCO)CC4)cc3C2)c2ccccc12
#28 OC(CNCc1ccc(-c2ccccc2)cc1)c1ccccc1 (stereo not given)
#29 OC(CNCc1ccncc1)c1ccccc1 (stereo not given)
#30 N#Cc1c(-c2ccccc2)nc(SCC(=O)Nc2nnc(C(F)(F)F)s2)[nH]c1=O
Compound | 25 | 26 | 27 | 28 | 29 | 30
TCR activator | nt | 7% | nt | 2% | 2% | 2%
RXFP1 antag | 3 | -11 | nt | -61* | -8 | 22
RXFP1 agonist | 4% | 1% | nt | 2% | -1% | 18µM*
miR-21 FLuc | -4% | -6% | nt | 17% | -10% | 0%
PINK1 expr mod | ? | 10% | -1% | 12% | 5% | -1%
IL2 activator | nt | 160* | nt | 0 | 1 | 0

Look-ups from the list:
O=C(Nc1ccc([N+](=O)[O-])cc1)C(Cc1ccccc1)N1C(=O)c2cccc3cccc(c23)C1=O (stereo not given) in PINK1 expr mod has 10%
OC(CNCc1ccc(-c2ccccc2)cc1)c1ccccc1 (stereo not given) in IL2 activator has 0
COc1ccc(CN2CCOc3ccc(CN4CCN(CCO)CC4)cc3C2)c2ccccc12 in PINK1 expr mod has -1%

Some of these compounds in order of the RXFP1 antag value, highest first:
#21 Clc1ccccc1/C=N/NC1=Nc2cccc3cccc1c23
#11 COc1ccc(-n2c(=S)[nH]c3cc(C(=O)NCc4cccnc4)ccc3c2=O)c(OC)c1
#9 O=C(NNC(=O)c1cc(-c2cccnc2)nc2ccccc12)Nc1ccc(Cl)cc1
Compound | 21 | 11 | 9
TCR activator | 4%[46.1 µM] | 3% | 2%
RXFP1 antag | -12 | -71* | -73*
RXFP1 agonist | 1% | 3% | 0%
miR-21 FLuc | -53% | 5% | 8%
PINK1 expr mod | ? | 2% | 30%
IL2 activator | 244* | 0 | -1

Next structures follow.
#31 N#Cc1c(-c2ccccc2)nc(SCC(=O)Nc2ccccc2)[nH]c1=O
#32 CCc1ccc(NC(=O)CSc2nc(-c3ccccc3)c(C#N)c(=O)[nH]2)cc1
#33 N#Cc1c(-c2ccccc2)nc(SCC(=O)Nc2ccccc2F)[nH]c1=O
#34 Cc1cc(C)nc(NS(=O)(=O)c2ccc(NC(=O)CSc3nc(-c4ccccc4)c(C#N)c(=O)[nH]3)cc2)n1
#35 CCOC(=O)CN1CCCC1=O
#36 CCN1CCCC1CNC(=O)c1cnn(-c2nccc(-c3ccccc3F)n2)c1C (stereo not given)
Compound | 31 | 32 | 33 | 34 | 35 | 36
TCR activator | 1%[46.1 µM] | nt | 3%[46.1 µM] | 1% | nt | nt
RXFP1 antag | 7 | 5 | 31 | 19 | 3 | nt
RXFP1 agonist | 26% | 25µM* | 20% | 18µM* | nt | nt
miR-21 FLuc | -4% | -1% | -3% | -1% | nt | nt
PINK1 expr mod | 3% | 2% | 3% | 3% | nt | 1%
IL2 activator | 0 | nt | 1 | -3 | nt | nt

#37 Cc1occc1C(=O)Nc1cccc(-c2nc(CNC(=O)c3cccc(C#CC(C)(C)O)c3)c(C)o2)c1
#38 Cc1occc1C(=O)Nc1cccc(-c2nc(CNC(=O)c3ccc4ccccc4n3)c(C)o2)c1
#39 CCSc1nc(=S)cc(C)[nH]1
#40 O=C(NC(=S)NNC(=O)c1ccccc1O)c1ccco1
#41 O=C(NC(=S)NNC(=O)c1cc2ccccc2cc1O)c1ccco1
#42 CCCCN1C(=O)C(O)(c2c(C)[nH]c3ccccc23)c2cc(Br)ccc21 (stereo not given)
#43 COc1cccc2ccc(CC(O)(c3ccccc3)c3ccccc3)nc12
#44 Cc1cc(N2C(=O)C(O)=C(C(=O)c3cc4ccccc4o3)C2c2cccc(Br)c2)no1 (stereo not given)
Compound | 37 | 38 | 39 | 40 | 41 | 42 | 43 | 44
TCR activator | nt | nt | 1% | -7%[46.1 µM] | nt | nt | nt | 10%
RXFP1 antag | nt | nt | -75* | -17 | -70* | -103* | 5 | 10
RXFP1 agonist | nt | nt | 2% | 2% | -1% | 0% | nt | 16µM*
miR-21 FLuc | nt | nt | 3% | -5% | 11% | ? | nt | -5%
PINK1 expr mod | 3% | 1% | -1% | ? | 1% | 1% | 40µM* | ?
IL2 activator | nt | nt | 0 | 1 | 0 | nt | -3 | 1

Source: PubChem (National Center for Advancing Translational Sciences (NCATS))
